Data reported in patent US20230331675A1, “AROMATIC ETHYLENE COMPOUND AND PREPARATION METHOD THEREFOR, AND INTERMEDIATE, PHARMACEUTICAL COMPOSITION, AND APPLICATION THEREOF” (GUANGZHOU MAXINOVEL PHARMACEUTICALS CO., LTD., priority 2020, published 2023).

The chains behind the UniProt entries cited, without tags or fusion partners. Residues count along the entry.
UniProt Q9NZQ7, 19-238 limits assumed: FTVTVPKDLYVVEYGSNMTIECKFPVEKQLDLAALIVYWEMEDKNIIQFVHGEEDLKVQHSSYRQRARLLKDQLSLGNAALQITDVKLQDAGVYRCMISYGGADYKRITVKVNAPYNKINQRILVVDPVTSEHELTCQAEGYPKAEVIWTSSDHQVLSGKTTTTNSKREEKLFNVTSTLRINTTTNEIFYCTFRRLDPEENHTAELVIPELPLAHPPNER

Biological target: PD-1/PD-L1 (Homo sapiens (Human), UniProt Q9NZQ7)
Test: Homogeneous time-resolved fluorescence (HTRF) binding assay
Conditions: read-out: IC50 of compounds binding to PD-1/PD-L1, CisBio kit
Description: Effect embodiment 1: Homogenouse time-resolved fluorescence
Homogeneous time-resolved fluorescence (HTRF) binding assay was used to determine the binding ability of the compound of the present disclosure to PD-1/PD-L1.
The purchased kit (CisBio, #64CUS000C-1) contained reagents required for assays such as PD-1, PD-L1, anti-tag1-Eu, Anti-tag2-XL665, dilute buffer, and detection buffer.
1. The compound was formulated to 10 concentrations with a 3-fold gradient with 100% DMSO.
2. The DMSO solution of the compound was added to the dilute buffer, mixed thoroughly, then transferred to a 96-well plate.
3. PD-L1 was diluted with dilute buffer, then added to the above 96-well plate.
4. PD-1 was diluted with dilute buffer and added to the above 96-well plate, which was then incubated at room temperature for 30 minutes.
5. A portion of anti-tag1-Eu and a portion of anti-tag2-XL665 were added to the detection buffer, mixed thoroughly and transferred to the above 96-well plate.
6. The mixture in the above 96-well plate was incubated at room temperature for 1 to 24 hours.
7. HTRF values were read with Envision.

[2H]/C(=C(/[2H])c1cccc(-c2ccccc2)c1C)c1cc(OC)c(CN2CCCC[C@H]2C(=O)O)cc1C(F)(F)F
IC50: 2 nM
